The list is not random: actives were taken first. Their share in the collection is about 2.5%.
rTrxR1 inhibitor: inhibitors of rat thioredoxin reductase 1; Potency, µM (top dose mostly 114 µM), inactives show top-dose activity change, negative = inhibition, hits mostly inhibitors; AID 588453; 390,000 compounds, 1% hits; recombinant rTrxR1, NADPH fluorescence consumption, selenite substrate; O89049; note: potency is the fitted concentration of half-maximal effect; % is set by controls: 0 for no effect and ±100 for the full control effect; nearly all actives have a fitted effect of over 65% in size
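Rat TrxR1 (90 nM in the dispensed reagent) was pre-reduced with 400 uM NADPH for 5 min at room temperature, then incubated with compound for 15 min. After 400 uM selenite was added, NADPH fluorescence (Ex 340/Em 450 nm) was followed for 8 min.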
ClpP mod: qHTS Assay for Activators of ClpP; purified B. subtilis ClpP, FRET peptide cleavage, 20 min; 340,000 compounds, 1.9% hits; Potency, µM (series often up to 57.5 µM), for the others: at the top dose activity change, negative = active; active = well fitted falling curve with a large enough effect; inconclusive = small, poorly fitted or top-dose-only effect; inactive = no such curve, though single readings can be large or run the other way; note: potency is the fitted concentration of half-maximal effect; the source files actives as falling curves though it sought activators and does not explain the sign; nearly all actives have a fitted effect of over 65% in size
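Purified B. subtilis ClpP, 10 microg/mL final in Tris/HCl pH8 with KCl, BSA, glycerol and Tween-20, cleaved an Abz/nitrotyrosine-quenched decapeptide. Fluorescence (ex 320, em 430) was read at 0 and 20 min at room temperature. Delta was normalized to 5.8 microM ADEP and DMSO/no-enzyme controls.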
TrxR1 substrate: rat thioredoxin reductase 1 substrate activity; O89049; purified TrxR1 substrate turnover, NADPH consumption readout; Potency, µM (doses to about 114 µM), without a hit: top-dose activity change, negative = substrate turnover; 390,000 compounds, 0.01% hits; note: potency is the fitted concentration of half-maximal effect; % is set by controls: 0 for no effect and ±100 for the full control effect; nearly all actives have a fitted effect of over 50% in size
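Rat TrxR1, dispensed at 90 nM, was prereduced with 400 uM NADPH (final) for 5 min at ~22 deg C, then incubated with compound 15 min before 400 uM selenite. A first-read NADPH fluorescence drop versus no-compound background flagged substrates.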
Anesthetic bind: binds horse apoferritin like a general anesthetic. apoferritin/1-aminoanthracene competitive binding, fluorescence. Potency, µM (highest dose often 77.5 µM), for inactives: at the top dose activity change, negative = displacement, actives largely listed as inhibitors. 350,000 compounds, 0.074% hits. AID 485281; note: potency is the fitted concentration of half-maximal effect; % is set by controls: 0 for no effect and ±100 for the full control effect; nearly all actives have a fitted effect of over 20% in size
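Read-out: endpoint 1-AMA fluorescence, excitation 380 nm and emission 535 nm, after compounds sit 10 min at room temperature with 10 uM horse-spleen apoferritin in 50% saturated 1-AMA/PBS. Values come from four-parameter Hill fits.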
miR-21 reporter: raises the signal of a miR-21 reporter; 340,000 tested, under 10 active; HeLa miR-21 FLuc reporter, luciferase, 48 h; Potency, µM (series often up to 38.3 µM), for inactives: at the highest dose reporter change, positive = more light; active = well fitted rising curve with a large enough effect; inconclusive = small, poorly fitted or top-dose-only effect; inactive = no such curve, though single readings can be large or run the other way;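 further: % of control where 0% means no effect; miR-21 action dims this reporter so a rising signal means less miR-21 action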
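HeLa cells stably expressing CMV-driven firefly luciferase with a downstream miR-21 binding sequence, endogenously expressing miR-21, were treated with titrations (up to about 40uM final) for 48 hours at 37 degree Celsius. Luciferase luminescence was read after lysis.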
Numbers without * were called inactive; [ ] = another dose, or the depositor's remark. Unless noted, calls come from the whole dose curve; as a rule, active = well fitted curve in the direction sought with a large enough effect; inconclusive = small, poorly fitted or top-dose-only effect, or another doubt; inactive = no such curve, though single readings can be large; an effect the other way counts as inactive or inconclusive.

What do the screens show for `CCOC(=O)COn1c(=O)c(-c2ccc(C)cc2)[n+]([O-])c2ccccc21`?
rTrxR1 inhibitor: 3%; ClpP mod: -2%; TrxR1 substrate: -4%; Anesthetic bind: 5%; miR-21 reporter: -13%

What do the screens show for `CC(C)(C)c1ccc(NC(=O)COc2ccc(-n3ccnc3)cc2)cc1`?
rTrxR1 inhibitor: 11%[57.1 µM]; ClpP mod: -2%; TrxR1 substrate: -8%[57.1 µM]; Anesthetic bind: 28µM*; miR-21 reporter: 27%

How did CCOc1ccccc1Cn1c(=O)oc2ccc(C)cc21 do in these assays?
rTrxR1 inhibitor: 7%[57.1 µM]; ClpP mod: 25µM*; TrxR1 substrate: -11%; Anesthetic bind: 5%; miR-21 reporter: -18%

Results for O=C1NCCCC2c3c(cc(Br)c(O)c3Br)OC12N1CCOCC1 (configuration not stated) ?
rTrxR1 inhibitor: 16µM*; ClpP mod: -3%; TrxR1 substrate: -6%; Anesthetic bind: -6%; miR-21 reporter: -4%

Results for CC1CC2(NC(=O)NC2=O)C(C)CN1C (configuration not stated) ?
rTrxR1 inhibitor: 1%; ClpP mod: 25µM*; TrxR1 substrate: -2%; Anesthetic bind: -9%; miR-21 reporter: 2%

Results for CC1C[C@@]2(NC(=O)NC2=O)C(C)CN1C (some centres not stated) ?
rTrxR1 inhibitor: -8%; ClpP mod: 0%; TrxR1 substrate: -12%; Anesthetic bind: -5%; miR-21 reporter: -2%

What do the screens show for `CC(=O)NCCCC[C@H](NC(=O)OC(C)(C)C)C(=O)Nc1ccc2c(C(F)(F)F)cc(=O)oc2c1`?
Anesthetic bind: -1%

What do the screens show for `Fc1ccc(CNc2ncnc3c2cnn3-c2ccccc2)cc1`?
rTrxR1 inhibitor: 11%[57.1 µM]; ClpP mod: 35µM*; TrxR1 substrate: 4%[57.1 µM]; Anesthetic bind: -14%; miR-21 reporter: -18%

Results for Cc1ccc(-n2ncc3c(NCCc4ccccc4)ncnc32)cc1C ?
rTrxR1 inhibitor: 9%[57.1 µM]; ClpP mod: 28µM*; TrxR1 substrate: -1%[57.1 µM]; Anesthetic bind: 213%; miR-21 reporter: 10%

Results for c1ccc(CNc2ncnc3c2cnn3-c2ccccc2)cc1 ?
rTrxR1 inhibitor: 10%; ClpP mod: inconclusive; TrxR1 substrate: 3%; Anesthetic bind: -10%; miR-21 reporter: -12%

Results for c1ccc(CCNc2ncnc3c2cnn3-c2ccccc2)cc1 ?
rTrxR1 inhibitor: -11%; ClpP mod: -21%; TrxR1 substrate: -1%; Anesthetic bind: -13%; miR-21 reporter: -56%

Results for c1ccc(-n2ncc3c(NCc4ccccn4)ncnc32)cc1 ?
rTrxR1 inhibitor: 8%; ClpP mod: 13µM*; TrxR1 substrate: 16%; Anesthetic bind: 5%; miR-21 reporter: -38%

Results for COc1ccc(/C=C/C(=O)Nc2ccc(-n3nncc3-c3ccc(OC)c(OC)c3)cc2)cc1OC ?
rTrxR1 inhibitor: 6%; ClpP mod: 25µM*; TrxR1 substrate: 35%; Anesthetic bind: 10%; miR-21 reporter: -18%

Results for COc1ccc(-c2cnnn2-c2ccc(NC(=O)/C=C/c3ccc(OC)c(OC)c3)cc2)cc1 ?
rTrxR1 inhibitor: 0%; ClpP mod: inconclusive; TrxR1 substrate: 2%; Anesthetic bind: 16%; miR-21 reporter: -11%

How did COc1cccc(CN(C)C(=O)C2CC(=O)N(c3ccc4c(c3)OCCO4)C2)c1 (configuration not stated) do in these assays?
rTrxR1 inhibitor: 25%; ClpP mod: 14µM*; TrxR1 substrate: 10%

How did COc1ccc(CN(C)C(=O)C2CC(=O)N(c3ccc4c(c3)OCCO4)C2)cc1 (configuration not stated) do in these assays?
ClpP mod: 0%

What do the screens show for `Cc1ccc(C(=O)N/C(=C\c2ccc(-c3ccccc3[N+](=O)[O-])o2)C(=O)NCCCN2CCOCC2)cc1`?
rTrxR1 inhibitor: 40µM*; ClpP mod: -2%; TrxR1 substrate: -7%; Anesthetic bind: -18%; miR-21 reporter: 12%

What do the screens show for `CCOC(=O)CSc1nc2c(sc3ccccc32)c(=O)n1CCc1ccccc1`?
rTrxR1 inhibitor: 13%[57.1 µM]; ClpP mod: 0%; TrxR1 substrate: 1%[57.1 µM]; Anesthetic bind: 3%; miR-21 reporter: 3%

What do the screens show for `O=C1CN(/N=C\c2ccc([N+](=O)[O-])o2)C(=O)N1`?
Anesthetic bind: 1%[29.3 µM]

What do the screens show for `O=C1C2C3C=CC(C4CC34)C2C(=O)N1/N=C/c1ccc([N+](=O)[O-])o1` (configuration not stated)?
rTrxR1 inhibitor: 14µM*; TrxR1 substrate: -4%[57.1 µM]; Anesthetic bind: -20%; miR-21 reporter: 16%

Next part; it opens with the 3 that closed the last part.
What do the screens show for `CCOC(=O)CSc1nc2c(sc3ccccc32)c(=O)n1CCc1ccccc1`?
rTrxR1 inhibitor: 13%[57.1 µM]; ClpP mod: 0%; TrxR1 substrate: 1%[57.1 µM]; Anesthetic bind: 3%; miR-21 reporter: 3%

What do the screens show for `O=C1CN(/N=C\c2ccc([N+](=O)[O-])o2)C(=O)N1`?
Anesthetic bind: 1%[29.3 µM]

What do the screens show for `O=C1C2C3C=CC(C4CC34)C2C(=O)N1/N=C/c1ccc([N+](=O)[O-])o1` (configuration not stated)?
rTrxR1 inhibitor: 14µM*; TrxR1 substrate: -4%[57.1 µM]; Anesthetic bind: -20%; miR-21 reporter: 16%

What do the screens show for `O=C1C2C(C(=O)N1/N=C/c1ccc([N+](=O)[O-])o1)C1C=CC2C12CC2` (configuration not stated)?
rTrxR1 inhibitor: 56µM*; ClpP mod: 1%; TrxR1 substrate: -12%; Anesthetic bind: -2%; miR-21 reporter: 15%

How did COC(=O)c1ccc(-c2ccc(/C=N/N3C(=O)C4C5C=CC(C6CC56)C4C3=O)o2)cc1 (configuration not stated) do in these assays?
rTrxR1 inhibitor: 20µM*; ClpP mod: 1%; TrxR1 substrate: 21%; Anesthetic bind: inconclusive; miR-21 reporter: -39%

How did Cc1cnc2ccccc2c1/C=C/c1ccc(N(C)C)cc1 do in these assays?
rTrxR1 inhibitor: 11%; ClpP mod: 0%; TrxR1 substrate: -1%

How did COc1ccc(N2C(=O)C(Cl)=C(Oc3cccc(OC)c3)C2=O)cc1 do in these assays?
rTrxR1 inhibitor: 0.45µM*; TrxR1 substrate: -14%[57.1 µM]; Anesthetic bind: -17%; miR-21 reporter: 0%

How did COc1ccc(N2C(=O)C(Cl)=C(Nc3ccccc3O)C2=O)cc1 do in these assays?
rTrxR1 inhibitor: inconclusive; ClpP mod: 32µM*; TrxR1 substrate: -14%; Anesthetic bind: inconclusive; miR-21 reporter: -26%

How did O=C(O)CSc1nnc(COc2cccc3cccnc23)n1-c1cccc(C(F)(F)F)c1 do in these assays?
rTrxR1 inhibitor: -2%[57.1 µM]; TrxR1 substrate: 4%[57.1 µM]; Anesthetic bind: -1%; miR-21 reporter: 0%

What do the screens show for `C=CCn1c(COc2cccc3cccnc23)nnc1SCC(=O)O`?
rTrxR1 inhibitor: 7%[57.1 µM]; ClpP mod: 28µM*; TrxR1 substrate: 14%[57.1 µM]; Anesthetic bind: -4%; miR-21 reporter: -1%

What do the screens show for `C=CCn1c(COc2cccc3ccc(C)nc23)nnc1SCC(=O)O`?
rTrxR1 inhibitor: 31%[57.1 µM]; ClpP mod: 35µM*; TrxR1 substrate: 13%[57.1 µM]; Anesthetic bind: -4%; miR-21 reporter: 0%

How did N#Cc1c(-c2ccccc2)cc(-c2ccc3c(c2)OCO3)[nH]c1=O do in these assays?
rTrxR1 inhibitor: 24%; ClpP mod: 18µM*; TrxR1 substrate: 56%

Assay outcomes from PubChem BioAssay.
